This passage reports 2nd ADC Cell Killing IC50 results from patent US20170253656A1.

Sequences and labels used below:
B1: 1445-A03 paired with trastuzumab light chain (Fab)
VH: EVQLVESGGGLVQPGGSLRLSCAASGFNISGYYIHWVRQAPGKGLEWVAEISPTGGYTYYADSVKGRFTISADTSKNTAYLQMNSLRAEDTAVYYCAREHGLVYGQPMDYWGQGTLVTVSS
light: DIQMTQSPSSLSASVGDRVTITCRASQDVNTAVAWYQQKPGKAPKLLIYSASFLYSGVPSRFSGSRSGTDFTLTISSLQPEDFATYYCQQHYTTPPTFGQGTKVEIK
B2: 1445-B09 paired with trastuzumab light chain (Fab)
VH: EVQLVESGGGLVQPGGSLRLSCAASGFNITGTGIHWVRQAPGKGLEWVGIITPYNGTTNYADSVKGRFTISADTSKNTAYLQMNSLRAEDTAVYYCARGGYGYYYPPFDYWGQGTLVTVSS
light: B1 light
B3: 1198-A01 paired with trastuzumab LC (Fab)
VH: EVQLVESGGGLVQPGGSLRLSCAASGFTFSDYDMSWVRQAPGKGLEWVGFIAQDGSYKYYVDSVKGRFTISRDNAKNSLYLQMNSLRAEDTAVYYCARSKLFRAGQFDYWGQGTLVTVSS
light: B1 light
B4: 1198-D04 paired with trastuzumab LC (Fab)
VH: EVQLVESGGGLVQPGGSLRLSCAASGFNINNYDIHWVRQAPGKGLEWVANIDPYNGTTYYADSVKGRFTISADTSKNTAYLQMNSLRAEDTAVYYCARVPWGFWAPFDYWGQGTLVTVSS
light: B1 light

The target in this experiment is CD74 on CD74 positive SU-DHL-6 cells, P04233. As to the kind of experiment: cell-based or functional assay.
With B1, the 2nd ADC Cell Killing IC50 came to 0.7 nM.
In the case of B2, the 2nd ADC Cell Killing IC50 was found to be 0.45 nM.
Next, B3: 280 nM; B4: 187 nM.
